Chains of the proteins cited; added tags and fusions are not shown.
UniProt P08684, whole entry: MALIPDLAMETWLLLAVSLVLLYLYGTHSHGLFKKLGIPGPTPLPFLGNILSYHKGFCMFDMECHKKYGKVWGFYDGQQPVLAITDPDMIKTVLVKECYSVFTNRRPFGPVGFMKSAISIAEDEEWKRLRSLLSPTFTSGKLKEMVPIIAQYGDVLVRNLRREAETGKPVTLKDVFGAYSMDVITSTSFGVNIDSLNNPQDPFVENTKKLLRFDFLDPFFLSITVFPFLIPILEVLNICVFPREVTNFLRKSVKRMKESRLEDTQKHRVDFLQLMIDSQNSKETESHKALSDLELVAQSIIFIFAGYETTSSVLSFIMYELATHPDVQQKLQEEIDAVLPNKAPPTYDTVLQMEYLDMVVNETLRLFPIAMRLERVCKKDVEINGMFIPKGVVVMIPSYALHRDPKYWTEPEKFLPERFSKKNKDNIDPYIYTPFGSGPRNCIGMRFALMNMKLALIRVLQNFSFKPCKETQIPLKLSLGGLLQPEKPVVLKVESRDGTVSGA

According to patent publication US20230414607A1, “METHODS OF TREATMENT” (BOW RIVER LLC, priority 2017, published 2023):

Legend:
CYP3A4 = CYP3A4 (Homo sapiens, UniProt P08684); conditions: in vivo; cited from earlier work
[1] = QTcF from 12-lead safety ECG readings; format: in vivo, human; conditions: mean ± SD
Source text: Potential study participants underwent screening and evaluation within 30 days of study initiation. Procedures included medical and psychiatric history, physical examination, electrocardiogram (ECG), hematologic and biochemical screening, and urine testing for drugs of abuse. All study participants were healthy active nonsmoking adults with no history of significant medical or psychiatric disease and taking no prescription medications. Obese subjects were free of metabolic or other complications of obesity. […] Subjects were also administered 12-lead ECGs in triplicate on study days 1 and 15 before and 4 hours after the ranolazine dose as well as before discharge on day 30.
QTcF values were determined electronically from 12-lead ECG readings taken for safety purposes. […] Differences between baseline and study days 1, 15, and 30 were evaluated by Student's t-test for independent groups.

CYP3A = assay: Example 3: ranolazine AUC during and after posaconazole (drug-drug interaction); conditions: normal-weight and obese subjects
[2] = Plasma ranolazine pharmacokinetics before, during and after posaconazole in normal-weight and obese subjects; format: in vivo, human
Experimental: Procedures. […] Samples were centrifuged, and the plasma was separated and frozen at −70° C. until the time of assay of plasma ranolazine concentrations. On study day 2, subjects received posaconazole (300 mg delayed-release tablet twice a day), and on the mornings of days 3-15, subjects received posaconazole (300 mg delayed-release tablet daily). Because posaconazole is to be taken with food,^6 subjects were fed a continental breakfast in the clinical research unit after receiving posaconazole and before discharge from the unit. […] Samples were centrifuged, and the plasma was separated and frozen at −70° C. until the time of assay of plasma posaconazole concentrations. […] Plasma samples were extracted by methyl tertiary butyl ether, centrifuged, and the upper layer was transferred to plastic injection vials with MeOH/water (50:50). An aliquot of the sample was then injected onto a high-pressure liquid chromatography with tandem mass spectrometry triple quadrupole mass spectrometer (Sciex API-5500). The analytical column was a Unison CK-218, 3 μm particle size HPLC column (50×2 mm) from Imtakt USA (Portland, OR). […] The m/z transitions monitored were 428.3→279.2 for ranolazine and 431.3→282.2 for the internal standard. […] Pharmacokinetic and Statistical Methods. For each ranolazine trial in each subject, the terminal log-linear phase of the plasma concentration curve was identified visually, and the terminal rate constant (β) was determined by log-linear regression analysis. This was used to calculate the half-life (t1/2). The area under the plasma concentration curve from time 0 until the last nonzero point was determined by the linear trapezoidal method. To this was added the residual area, calculated as the final nonzero concentration divided by β, yielding the total area under the plasma concentration curve extrapolated to infinity (AUC). Also tabulated was the observed maximum plasma concentration (Cmax). Variables were aggregated as arithmetic mean and SD.

[3] = cited from earlier work
[4] = Day 18/Day 1, normal-weight subjects
[5] = Day 22/Day 1, normal-weight subjects
[6] = Day 25/Day 1, normal-weight subjects
[7] = Day 29/Day 1, normal-weight subjects

**Q.** For `C[C@@H](Oc1cc(-c2cnn(C3CCNCC3)c2)cnc1N)c1c(Cl)ccc(F)c1Cl` [crizotinib], which “AUC co-administration levels, Percent of baseline” value (CYP3A4) is on record?
**A.** 157%

**Q.** What about the “Cmax co-administration levels, Percent of baseline” value (CYP3A4) of the same molecule?
**A.** 133%

**Q.** What does the source list for `COc1ccccc1OCC(O)CN1CCN(CC(=O)Nc2c(C)cccc2C)CC1` (centres unmarked) [ranolazine]?
**A.** QTcF values relative to baseline ([1]; Day 1, 4 h post-dose of ranolazine 500 mg, normal-weight subjects): 9.85 ± 12 ms; QTcF values relative to baseline ([1]; Day 1, 4 h post-dose of ranolazine 500 mg, obese subjects): 3.83 ± 11 ms; QTcF values relative to baseline ([1]; Day 1, predose, normal-weight subjects): 2.14 ± 10 ms; QTcF values relative to baseline ([1]; Day 1, predose, obese subjects): 7.50 ± 9.2 ms; QTcF values relative to baseline ([1]; Day 15, 4 h post-dose (ranolazine with posaconazole), normal-weight subjects): 4.36 ± 16 ms; QTcF values relative to baseline ([1]; Day 15, 4 h post-dose (ranolazine with posaconazole), obese subjects): -3.33 ± 13 ms; QTcF values relative to baseline ([1]; Day 15, predose (during posaconazole), normal-weight subjects): 6.29 ± 16 ms; QTcF values relative to baseline ([1]; Day 15, predose (during posaconazole), obese subjects): 2.64 ± 11 ms; QTcF values relative to baseline ([1]; Day 30 (before discharge), normal-weight subjects who completed the study): 12.9 ± 16 ms and 12.9 ms; QTcF values relative to baseline ([1]; Day 30 (before discharge), obese subjects who completed the study): 2.6 ± 11 ms and 2.6 ms and 2.58 ± 11 ms; time AUC remained significantly elevated above baseline after stopping posaconazole (CYP3A): 7 to 14 days; Geometric mean ratio (90% CI) of plasma ranolazine AUC0-inf [2, 4]: 2.34 (1.70-3.22); Geometric mean ratio (90% CI) of plasma ranolazine Cmax [2, 4]: 1.82 (1.38-2.42); Geometric mean ratio (90% CI) of plasma ranolazine AUC0-inf ([2]; Day 18/Day 1, obese subjects): 2.25 (1.41-3.58); Geometric mean ratio (90% CI) of plasma ranolazine Cmax ([2]; Day 18/Day 1, obese subjects): 1.97 (1.42-2.80); Geometric mean ratio (90% CI) of plasma ranolazine AUC0-inf [2, 5]: 1.88 (1.38-2.54); Geometric mean ratio (90% CI) of plasma ranolazine Cmax [2, 5]: 1.50 (1.13-1.99); Geometric mean ratio (90% CI) of plasma ranolazine AUC0-inf ([2]; Day 22/Day 1, obese subjects): 1.79 (1.11-2.88); Geometric mean ratio (90% CI) of plasma ranolazine Cmax ([2]; Day 22/Day 1, obese subjects): 1.90 (1.35-2.54); Geometric mean ratio (90% CI) of plasma ranolazine AUC0-inf [2, 6]: 1.30 (0.97-1.76); Geometric mean ratio (90% CI) of plasma ranolazine Cmax [2, 6]: 1.36 (1.00-1.85); Geometric mean ratio (90% CI) of plasma ranolazine AUC0-inf ([2]; Day 25/Day 1, obese subjects): 1.57 (0.99-2.50); Geometric mean ratio (90% CI) of plasma ranolazine Cmax ([2]; Day 25/Day 1, obese subjects): 1.72 (1.20-2.47); Geometric mean ratio (90% CI) of plasma ranolazine AUC0-inf [2, 7]: 1.22 (0.92-1.62); Geometric mean ratio (90% CI) of plasma ranolazine Cmax [2, 7]: 1.16 (0.89-1.53); Geometric mean ratio (90% CI) of plasma ranolazine AUC0-inf ([2]; Day 29/Day 1, obese subjects): 1.21 (0.79-1.85); Geometric mean ratio (90% CI) of plasma ranolazine Cmax ([2]; Day 29/Day 1, obese subjects): 1.30 (0.94-1.82)

**Q.** What does the source list for trastuzumab deruxtecan?
**A.** Baseline AUC (% CV), AUClast ([3]; 21 day cycle at 0.8 mg/kg): 51.7 (13.1) ug*day/mL; Baseline AUC (% CV), AUClast ([3]; 21 day cycle at 3.2 mg/kg): 325 (142) ug*day/mL; Baseline AUC (% CV), AUClast ([3]; 21 day cycle at 8.0 mg/kg): 914 (235) ug*day/mL

Where “and” joins values, the source holds several entries; their conditions need not be identical. Identical values can stand only once. Like-named read-outs stand apart in the source and are kept apart here.
